# Reference: US20260174739A1 (priority 2022, published 2026)
# By UniProt entry, the sequences of proteins in these tests, tags left out.
# UniProt Q01959, whole entry: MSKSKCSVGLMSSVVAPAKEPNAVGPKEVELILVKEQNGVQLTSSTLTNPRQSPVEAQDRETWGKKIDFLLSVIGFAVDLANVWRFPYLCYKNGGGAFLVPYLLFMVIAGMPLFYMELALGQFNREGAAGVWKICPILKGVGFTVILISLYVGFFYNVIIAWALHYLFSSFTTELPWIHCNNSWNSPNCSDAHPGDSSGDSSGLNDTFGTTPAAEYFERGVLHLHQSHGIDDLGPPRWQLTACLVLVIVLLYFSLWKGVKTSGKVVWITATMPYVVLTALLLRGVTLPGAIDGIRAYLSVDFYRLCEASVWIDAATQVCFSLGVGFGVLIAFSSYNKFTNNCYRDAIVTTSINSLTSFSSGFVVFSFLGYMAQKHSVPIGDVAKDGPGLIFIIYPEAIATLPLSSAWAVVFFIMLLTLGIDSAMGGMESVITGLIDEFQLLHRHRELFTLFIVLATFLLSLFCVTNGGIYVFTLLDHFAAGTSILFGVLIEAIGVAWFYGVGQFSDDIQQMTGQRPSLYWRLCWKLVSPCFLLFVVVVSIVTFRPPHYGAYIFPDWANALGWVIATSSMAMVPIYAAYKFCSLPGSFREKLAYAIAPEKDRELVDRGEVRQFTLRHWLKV
# Target: human DAT (Homo sapiens, UniProt Q01959)
# Assay: DAT transporter inhibitory activity test (neurotransmitter transporter uptake assay kit)
# Assay type: cell-based
# Conditions: DAT stably transfected HEK cells
# Procedure: Transporter inhibition of human DAT and NET expressed in HEK-293 cells was assessed using a neurotransmitter transporter uptake assay kit. […] The specific procedures were as follows:
# DAT stably transfected culture: The DAT-HEK cell line was cultured in DMEM medium containing 10% fetal bovine serum and 0.2 mg/mL hygromycin B at 37° C. with 5% carbon dioxide.
# DAT stably transfected cell passage: the old medium was removed, and the cells were washed once with PBS; 1 mL of TrypLE™ Express solution was then added, and the cells were incubated at 37° C. for about 2 min. When the cells were detached from the bottom of the dish, about 5 mL of complete medium pre-heated at 37° C. was added. The cell suspension was gently pipetted to separate the aggregated cells. The cell suspension was transferred to a sterile centrifuge tube and centrifuged at 1000 rpm for 5 min. […]
# • a) After overnight transfection of NET cells, the cells were digested with trypsin, resuspended with DMEM+10% Dialyzed FBS medium, seeded into a 384-well plate at 20000 cells/well, and incubated overnight. […] After centrifuging, the plate was incubated at 37° C. for 60 min. • f) After incubation, the reading at 510 nm under the excitation of the detection wavelength of 425 nm was measured using a microplate reader. […]
compound,measurement,value
N[C@@]1(c2ccccc2)CCc2ccsc2C1 [S-A19],IC50,2.2 µM
